The list shows a part of the results, in another mix than the full data. Some of these compounds have results that are not shown, active ones among them. Activity calls are given as the source filed them. Cut-off read from the data, not from the text of the source: active = inhibition above about 21%; inactive = the rest.

Chains of the proteins cited; added tags and fusions are not shown.
UniProt Q96T88, whole entry: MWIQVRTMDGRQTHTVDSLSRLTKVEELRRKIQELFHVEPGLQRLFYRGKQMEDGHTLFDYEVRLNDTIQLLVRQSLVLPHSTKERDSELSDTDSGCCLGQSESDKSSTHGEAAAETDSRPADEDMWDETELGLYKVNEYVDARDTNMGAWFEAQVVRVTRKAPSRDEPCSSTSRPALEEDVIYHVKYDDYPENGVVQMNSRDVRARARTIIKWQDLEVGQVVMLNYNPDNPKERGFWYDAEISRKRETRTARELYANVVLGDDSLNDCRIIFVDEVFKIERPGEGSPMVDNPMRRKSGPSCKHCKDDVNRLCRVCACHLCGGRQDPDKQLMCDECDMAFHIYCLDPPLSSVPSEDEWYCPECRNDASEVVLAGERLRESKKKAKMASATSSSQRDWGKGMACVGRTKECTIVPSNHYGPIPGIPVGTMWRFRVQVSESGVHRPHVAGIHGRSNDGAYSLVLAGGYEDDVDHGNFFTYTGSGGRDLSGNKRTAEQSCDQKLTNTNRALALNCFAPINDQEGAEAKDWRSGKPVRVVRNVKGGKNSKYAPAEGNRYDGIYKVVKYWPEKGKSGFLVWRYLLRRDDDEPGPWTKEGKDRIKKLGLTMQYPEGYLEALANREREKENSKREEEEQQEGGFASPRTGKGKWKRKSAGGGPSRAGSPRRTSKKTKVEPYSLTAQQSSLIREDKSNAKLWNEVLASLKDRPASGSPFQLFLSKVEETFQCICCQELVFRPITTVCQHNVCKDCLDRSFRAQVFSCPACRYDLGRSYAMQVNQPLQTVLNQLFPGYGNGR

The experiment concerns the target E3 ubiquitin-protein ligase UHRF1 (Homo sapiens) (UniProt Q96T88). Put plainly: blockers of UHRF1 binding to methyl-oligo – biochemical, TR-FRET, human UHRF1, single concentration, counter-screen for MBD2 inhibitor project, primary screen (AID 687016).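 Note: UHRF1 SRA domain binding a hemimethylated CpG hairpin DNA probe; 0% = median of test compound wells and 100% = reference inhibitor.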 To be noted: UHRF1 binding to methylated oligo, at 4.4 µM, hits give high values. In general terms: In TR-FRET formats the signal depends on donor and acceptor labels being close together.
Take `O=C(OC1CN2CCC1CC2)C(CO)(c1ccccc1)c1ccccc1` (stereo unspecified): the inhibition was inactive: 1.78%.
Next, `O=C(OCCN1CCCC1)C(O)(c1ccccc1)c1ccccc1`: inactive: -1.39%; `CC(C)Oc1ccc(C(=O)NCC2(N(C)C)CCCCC2)cc1`: inactive: 3.51%.
Next, `CN(C)c1cccc(C(=O)NCC2(N(C)C)CCCCC2)c1`: inactive: -1.23%; `C=C(C)C#CC(O)(C(=O)OC1CCN(C)CC1)c1ccccc1` (stereo unspecified): inactive: -2.14%.
For `COc1ccc(Br)c(C(=O)NCC2(N3CCCCC3)CCCCC2)c1` the value was inactive: 2.89%; for `COc1cc(C(=O)NCC2(N(C)C)CCCCC2)c([N+](=O)[O-])cc1OC`, inactive: -1.99%; for `CN(C)C1(CNC(=O)c2ccc(Br)cc2)CCCCC1`, inactive: 3.37%.
As for `O=C(NCC1(N2CCCCC2)CCCCC1)c1cccc(Cl)c1`, the inhibition is inactive: 3.01%.
Next, `COc1ccc(Cl)cc1C(=O)NCC1(N(C)C)CCCCC1`: inactive: 5.18%.
Consider `COc1cccc(C(=O)NCC2(N3CCCCC3)CCCCC2)c1`, for which the inhibition was inactive: -2.92%.
`CN(C)C1CCCC1OC(=O)C(O)(c1ccccc1)c1ccccc1` (stereo unspecified): the inhibition was inactive: 0.74%.
Next, `CN(C)c1ccc(C(=O)NCC2(N(C)C)CCCCC2)cc1`: inactive: 0.66%; `Cc1ccccc1C(=O)NCC1(N2CCCCC2)CCCCC1`: inactive: -0.73%.
Next, `COc1ccc(C(=O)NCC2(N(C)C)CCCCC2)cc1`: inactive: -0.31%.
Next, `O=C(NCC1(N2CCCCC2)CCCCC1)c1cccc(Br)c1`: inactive: -2.33%.
In the case of `Cc1cc(C(=O)NCC2(N3CCCCC3)CCCCC2)ccc1[N+](=O)[O-]`, the inhibition is inactive: 1.11%.
Next, `CCN1CCCC(OC(=O)C2(O)c3ccccc3C=Cc3ccccc32)C1` (stereo unspecified): inactive: 4.43%.
For `O=C(NCC1(N2CCCCC2)CCCCC1)c1cc(F)c(F)cc1Cl` the value was inactive: -2.19%; for `C=CCN1CCN(CCOC(=O)C(O)(c2ccccc2)c2ccccc2)CC1`, inactive: -1.23%; for `CN1[C@@H]2CC[C@H]1CC(OC(=O)C(O)(c1ccccc1)c1ccccc1)C2` (stereo partly specified), inactive: 2.67%.
On to `O=C(NCC1(N2CCCCC2)CCCCC1)c1cc([N+](=O)[O-])ccc1Cl`, for which the inhibition was inactive: 0.21%.
Consider `Cc1ccc(C(=O)NCC2(N3CCCCC3)CCCCC2)cc1`, for which the inhibition is inactive: -0.67%.
Next, `COc1cc(SC)ccc1C(=O)NCC1(N(C)C)CCCCC1`: inactive: 1.85%; `CCN(CC)CC(C)C(C)OC(=O)C(O)(c1ccccc1)c1ccccc1` (stereo unspecified): inactive: -0.83%; `CC(C)N1C(=O)CC2(CCN(CCOC(=O)C(O)(c3ccccc3)c3ccccc3)CC2)C1=O`: inactive: 2.27%.

By inhibition is commonly meant the drop in the measured response relative to a control, in per cent.

Values taken from PubChem BioAssay AID687016 (The Scripps Research Institute Molecular Screening Center, 2013).
